# From PMC12142581
# Protein sequences, listed by entry. Tags and fused reporters are not part of them. Lines headed by an entry give the natural chain unless they say otherwise; changes in a name come on top. Residues count along the entry.
# UniProt P08482: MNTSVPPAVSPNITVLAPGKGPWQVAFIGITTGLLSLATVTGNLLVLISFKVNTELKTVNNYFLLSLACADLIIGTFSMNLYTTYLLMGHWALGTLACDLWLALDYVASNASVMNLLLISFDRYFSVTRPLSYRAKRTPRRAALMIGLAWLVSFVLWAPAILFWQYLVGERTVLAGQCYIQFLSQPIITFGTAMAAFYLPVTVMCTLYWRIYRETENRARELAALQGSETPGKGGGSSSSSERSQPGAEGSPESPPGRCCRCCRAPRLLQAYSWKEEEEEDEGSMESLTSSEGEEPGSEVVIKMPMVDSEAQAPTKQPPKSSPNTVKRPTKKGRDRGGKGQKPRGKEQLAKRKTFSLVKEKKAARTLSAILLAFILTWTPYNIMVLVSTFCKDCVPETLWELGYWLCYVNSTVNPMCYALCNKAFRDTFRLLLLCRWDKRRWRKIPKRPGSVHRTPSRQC
# UniProt P08911, whole entry, looked up: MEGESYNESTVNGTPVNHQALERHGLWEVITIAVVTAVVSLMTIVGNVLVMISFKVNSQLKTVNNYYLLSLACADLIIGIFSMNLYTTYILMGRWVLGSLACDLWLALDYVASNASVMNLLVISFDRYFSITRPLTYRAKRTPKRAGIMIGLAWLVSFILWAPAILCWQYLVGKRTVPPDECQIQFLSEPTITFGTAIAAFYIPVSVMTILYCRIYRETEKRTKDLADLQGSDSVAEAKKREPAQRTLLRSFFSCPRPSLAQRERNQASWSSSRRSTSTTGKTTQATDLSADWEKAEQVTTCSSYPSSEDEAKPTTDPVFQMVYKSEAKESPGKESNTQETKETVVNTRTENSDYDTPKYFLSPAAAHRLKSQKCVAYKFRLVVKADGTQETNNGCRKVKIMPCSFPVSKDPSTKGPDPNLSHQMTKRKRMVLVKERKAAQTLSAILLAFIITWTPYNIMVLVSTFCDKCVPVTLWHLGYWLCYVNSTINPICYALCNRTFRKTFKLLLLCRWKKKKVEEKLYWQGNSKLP
# UniProt P11229: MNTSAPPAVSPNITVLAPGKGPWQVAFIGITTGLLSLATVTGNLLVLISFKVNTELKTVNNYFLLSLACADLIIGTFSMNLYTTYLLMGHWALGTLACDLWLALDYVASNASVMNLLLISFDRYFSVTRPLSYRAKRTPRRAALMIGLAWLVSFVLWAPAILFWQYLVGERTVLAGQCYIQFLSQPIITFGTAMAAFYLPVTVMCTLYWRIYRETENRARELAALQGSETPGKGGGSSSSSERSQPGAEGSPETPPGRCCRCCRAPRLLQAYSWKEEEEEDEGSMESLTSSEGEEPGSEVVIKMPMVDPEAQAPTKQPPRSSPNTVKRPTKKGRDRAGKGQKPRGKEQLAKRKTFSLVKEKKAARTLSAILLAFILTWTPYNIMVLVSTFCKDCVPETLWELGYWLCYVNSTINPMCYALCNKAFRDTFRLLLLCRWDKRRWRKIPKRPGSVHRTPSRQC
# UniProt P06199, whole entry, looked up: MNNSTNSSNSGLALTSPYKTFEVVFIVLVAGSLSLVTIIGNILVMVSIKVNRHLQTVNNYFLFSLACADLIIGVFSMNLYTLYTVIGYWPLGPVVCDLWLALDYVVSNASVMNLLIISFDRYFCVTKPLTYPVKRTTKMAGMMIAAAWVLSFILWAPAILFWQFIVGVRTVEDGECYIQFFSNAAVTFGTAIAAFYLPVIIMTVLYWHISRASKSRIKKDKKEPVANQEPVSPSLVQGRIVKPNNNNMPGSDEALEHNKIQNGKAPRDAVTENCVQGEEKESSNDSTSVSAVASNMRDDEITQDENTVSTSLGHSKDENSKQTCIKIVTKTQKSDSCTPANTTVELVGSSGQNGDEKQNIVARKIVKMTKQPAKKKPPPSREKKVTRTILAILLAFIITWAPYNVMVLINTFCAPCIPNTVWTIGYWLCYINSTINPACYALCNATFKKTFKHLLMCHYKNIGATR
# UniProt P10980, whole entry, looked up: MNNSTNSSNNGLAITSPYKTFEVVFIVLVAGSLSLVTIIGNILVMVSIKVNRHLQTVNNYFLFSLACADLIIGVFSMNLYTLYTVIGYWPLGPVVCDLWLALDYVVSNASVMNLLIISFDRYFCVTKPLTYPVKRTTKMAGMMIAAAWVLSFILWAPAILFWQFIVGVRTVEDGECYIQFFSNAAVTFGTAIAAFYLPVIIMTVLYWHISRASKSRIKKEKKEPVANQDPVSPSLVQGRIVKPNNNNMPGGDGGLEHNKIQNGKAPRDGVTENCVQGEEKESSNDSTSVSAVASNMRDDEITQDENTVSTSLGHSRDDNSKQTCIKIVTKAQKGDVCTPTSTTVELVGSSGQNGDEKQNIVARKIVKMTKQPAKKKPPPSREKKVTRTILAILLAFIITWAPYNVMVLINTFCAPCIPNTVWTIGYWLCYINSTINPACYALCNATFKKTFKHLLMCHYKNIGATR
# UniProt G7PQB4, 1-479: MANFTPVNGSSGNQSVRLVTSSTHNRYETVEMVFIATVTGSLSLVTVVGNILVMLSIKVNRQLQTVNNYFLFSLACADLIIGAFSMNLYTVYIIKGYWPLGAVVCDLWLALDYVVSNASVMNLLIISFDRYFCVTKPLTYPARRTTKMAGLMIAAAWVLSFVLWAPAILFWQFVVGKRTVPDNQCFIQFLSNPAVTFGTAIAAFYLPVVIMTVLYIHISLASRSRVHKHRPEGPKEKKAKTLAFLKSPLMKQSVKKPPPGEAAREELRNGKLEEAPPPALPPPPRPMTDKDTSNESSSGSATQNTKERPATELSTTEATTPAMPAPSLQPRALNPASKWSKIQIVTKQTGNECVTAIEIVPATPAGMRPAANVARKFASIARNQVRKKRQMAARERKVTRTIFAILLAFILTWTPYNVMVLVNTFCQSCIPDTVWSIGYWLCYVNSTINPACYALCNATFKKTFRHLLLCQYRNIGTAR
# UniProt P08912, whole entry, looked up: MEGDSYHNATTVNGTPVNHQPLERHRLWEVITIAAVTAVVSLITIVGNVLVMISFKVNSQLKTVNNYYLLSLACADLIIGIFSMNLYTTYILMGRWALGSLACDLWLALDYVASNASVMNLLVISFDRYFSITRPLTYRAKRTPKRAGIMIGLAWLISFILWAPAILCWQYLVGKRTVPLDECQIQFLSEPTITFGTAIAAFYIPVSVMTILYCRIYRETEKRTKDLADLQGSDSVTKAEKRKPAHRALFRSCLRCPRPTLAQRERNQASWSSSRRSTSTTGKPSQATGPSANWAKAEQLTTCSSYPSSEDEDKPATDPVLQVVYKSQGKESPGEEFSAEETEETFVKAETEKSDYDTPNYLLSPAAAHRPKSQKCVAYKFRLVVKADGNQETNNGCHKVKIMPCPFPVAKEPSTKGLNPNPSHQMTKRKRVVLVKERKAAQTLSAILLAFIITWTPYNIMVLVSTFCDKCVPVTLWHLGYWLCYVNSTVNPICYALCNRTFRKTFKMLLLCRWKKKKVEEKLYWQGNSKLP
# UniProt P08485, whole entry, looked up: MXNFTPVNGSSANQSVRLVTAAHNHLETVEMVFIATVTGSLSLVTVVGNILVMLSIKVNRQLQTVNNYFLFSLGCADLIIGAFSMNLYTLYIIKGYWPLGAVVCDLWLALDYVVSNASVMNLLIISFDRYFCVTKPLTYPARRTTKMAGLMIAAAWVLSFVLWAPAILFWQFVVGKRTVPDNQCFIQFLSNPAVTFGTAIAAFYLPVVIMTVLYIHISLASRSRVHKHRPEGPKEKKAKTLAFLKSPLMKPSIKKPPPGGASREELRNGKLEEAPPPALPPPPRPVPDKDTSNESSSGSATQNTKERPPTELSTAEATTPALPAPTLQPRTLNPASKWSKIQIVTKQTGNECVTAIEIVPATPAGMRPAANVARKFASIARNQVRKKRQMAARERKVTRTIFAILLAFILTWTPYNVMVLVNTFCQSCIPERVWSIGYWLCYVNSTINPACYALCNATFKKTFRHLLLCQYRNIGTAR
# UniProt A0A8I3N4M6, 1-466: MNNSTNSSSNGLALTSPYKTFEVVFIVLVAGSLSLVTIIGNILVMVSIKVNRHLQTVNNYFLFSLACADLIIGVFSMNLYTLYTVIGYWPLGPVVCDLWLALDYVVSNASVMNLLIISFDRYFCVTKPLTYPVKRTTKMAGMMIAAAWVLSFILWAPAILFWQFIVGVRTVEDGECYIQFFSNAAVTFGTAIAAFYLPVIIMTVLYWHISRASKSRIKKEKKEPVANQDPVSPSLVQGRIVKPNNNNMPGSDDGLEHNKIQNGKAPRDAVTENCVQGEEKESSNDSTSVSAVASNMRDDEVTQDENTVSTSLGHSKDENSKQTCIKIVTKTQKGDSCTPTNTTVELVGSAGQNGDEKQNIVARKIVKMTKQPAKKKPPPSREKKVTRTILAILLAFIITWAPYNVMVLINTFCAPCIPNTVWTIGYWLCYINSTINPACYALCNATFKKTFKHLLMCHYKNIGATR
# UniProt F1SIA0, 1-479: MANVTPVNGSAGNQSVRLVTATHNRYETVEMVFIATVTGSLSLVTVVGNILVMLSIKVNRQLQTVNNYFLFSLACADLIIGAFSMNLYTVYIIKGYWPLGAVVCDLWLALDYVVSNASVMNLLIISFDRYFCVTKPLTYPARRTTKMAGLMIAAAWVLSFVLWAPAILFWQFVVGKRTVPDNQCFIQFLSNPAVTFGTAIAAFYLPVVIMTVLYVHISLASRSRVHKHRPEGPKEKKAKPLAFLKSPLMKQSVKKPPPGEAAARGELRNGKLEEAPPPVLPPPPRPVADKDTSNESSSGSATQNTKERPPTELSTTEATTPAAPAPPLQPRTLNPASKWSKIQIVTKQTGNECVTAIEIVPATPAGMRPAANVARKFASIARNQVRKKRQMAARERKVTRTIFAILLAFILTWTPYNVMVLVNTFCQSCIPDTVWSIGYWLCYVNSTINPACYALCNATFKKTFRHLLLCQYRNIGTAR
# UniProt P08483, whole entry, looked up: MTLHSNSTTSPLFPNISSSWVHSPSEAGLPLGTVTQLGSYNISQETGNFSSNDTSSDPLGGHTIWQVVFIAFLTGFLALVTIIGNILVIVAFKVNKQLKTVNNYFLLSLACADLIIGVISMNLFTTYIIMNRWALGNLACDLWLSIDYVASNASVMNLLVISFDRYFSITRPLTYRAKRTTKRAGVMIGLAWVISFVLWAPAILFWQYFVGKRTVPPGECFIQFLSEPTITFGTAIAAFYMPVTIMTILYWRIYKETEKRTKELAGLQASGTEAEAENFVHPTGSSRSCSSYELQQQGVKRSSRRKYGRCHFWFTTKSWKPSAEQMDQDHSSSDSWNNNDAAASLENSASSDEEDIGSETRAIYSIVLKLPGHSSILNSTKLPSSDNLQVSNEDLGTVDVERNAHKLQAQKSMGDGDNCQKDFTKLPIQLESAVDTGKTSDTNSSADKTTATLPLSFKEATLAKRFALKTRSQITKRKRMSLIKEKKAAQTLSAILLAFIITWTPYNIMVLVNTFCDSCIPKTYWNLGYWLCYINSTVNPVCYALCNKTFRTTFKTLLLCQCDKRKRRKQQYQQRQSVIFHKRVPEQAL
# UniProt A0A8I3Q4F7, 1-478: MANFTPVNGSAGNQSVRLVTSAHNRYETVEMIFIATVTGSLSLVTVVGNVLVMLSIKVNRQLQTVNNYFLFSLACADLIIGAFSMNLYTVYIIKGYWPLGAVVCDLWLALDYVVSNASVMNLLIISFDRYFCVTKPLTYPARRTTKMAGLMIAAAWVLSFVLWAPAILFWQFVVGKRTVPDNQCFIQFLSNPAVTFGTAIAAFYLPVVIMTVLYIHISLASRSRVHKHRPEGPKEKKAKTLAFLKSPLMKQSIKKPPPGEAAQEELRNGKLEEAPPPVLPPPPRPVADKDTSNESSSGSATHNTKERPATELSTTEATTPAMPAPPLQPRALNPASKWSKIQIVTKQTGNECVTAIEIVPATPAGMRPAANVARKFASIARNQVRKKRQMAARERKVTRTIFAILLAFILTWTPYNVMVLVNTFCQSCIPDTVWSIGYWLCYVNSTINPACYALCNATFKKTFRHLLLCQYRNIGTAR
# UniProt P08172, whole entry, looked up: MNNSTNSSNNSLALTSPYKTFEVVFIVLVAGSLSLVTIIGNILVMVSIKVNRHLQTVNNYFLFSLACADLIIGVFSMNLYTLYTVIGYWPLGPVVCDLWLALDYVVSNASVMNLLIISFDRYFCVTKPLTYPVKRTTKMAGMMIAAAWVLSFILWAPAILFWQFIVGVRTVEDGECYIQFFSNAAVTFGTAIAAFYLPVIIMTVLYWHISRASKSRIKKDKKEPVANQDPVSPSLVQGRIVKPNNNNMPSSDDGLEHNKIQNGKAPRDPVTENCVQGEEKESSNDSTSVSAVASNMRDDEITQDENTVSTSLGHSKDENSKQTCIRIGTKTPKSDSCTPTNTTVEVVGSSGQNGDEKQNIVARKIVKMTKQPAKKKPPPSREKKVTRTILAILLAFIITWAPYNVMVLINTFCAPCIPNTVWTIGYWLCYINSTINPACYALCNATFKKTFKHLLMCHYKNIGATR
# How the values were obtained:
# [1] = Binding in plasma, equilibrium dialysis; settings: fraction unbound
# rat M1 = rat M1 (Rattus norvegicus, UniProt P08482); assay: Calcium mobilization assay, CHO cells, EC20 acetylcholine
# rat M5 = rat M5 (Rattus norvegicus, UniProt P08911); assay: as above
# dog M3 = assay: as above
# human M1 = human M1 (Homo sapiens, UniProt P11229); assay: as above
# minipig M2 = minipig M2 (Sus scrofa, UniProt P06199); assay: as above
# rat M2 = rat M2 (Rattus norvegicus, UniProt P10980); assay: as above
# cyno M4 = cyno M4 (Macaca fascicularis, UniProt G7PQB4); assay: as above
# human M5 = human M5 (Homo sapiens, UniProt P08912); assay: as above
# rat M4 = rat M4 (Rattus norvegicus, UniProt P08485); assay: as above
# dog M2 = dog M2 (Canis lupus familiaris, UniProt A0A8I3N4M6); assay: as above
# minipig M4 = minipig M4 (Sus scrofa, UniProt F1SIA0); assay: as above
# rat M3 = rat M3 (Rattus norvegicus, UniProt P08483); assay: as above
# dog M4 = dog M4 (Canis lupus familiaris, UniProt A0A8I3Q4F7); assay: as above
# human M2 = human M2 (Homo sapiens, UniProt P08172); assay: as above
# cyno M2 = cyno M2 (Macaca fascicularis, UniProt G7P0W8); assay: as above
# Kinetic solubility = settings: PBS buffer
# [2] = Multi-species hepatocyte MetID; settings: 10 µM parent, 4 h
structure (smiles),measurement,setting,value
Cc1nnc2sc3c(NCc4ccc(C(C)(C)O)cc4)ncnc3c2c1C,"human fu,plasma",[1],0.007
same,"rat fu,plasma",[1],0.02
same,activity,rat M1,inactive
same,activity,rat M5,inactive
same,activity,dog M3,inactive
same,activity,human M1,inactive
same,%AChMax,minipig M2,43 % AChMax
same,EC50,minipig M2,3000 nM
same,pEC50,minipig M2,5.52
same,%AChMax,rat M2,53 % AChMax
same,EC50,rat M2,2410 nM
same,pEC50,rat M2,5.62
same,%AChMax,cyno M4,89 % AChMax
same,EC50,cyno M4,63.5 nM
same,pEC50,cyno M4,7.20
same,activity,human M5,inactive
same,%AChMax,rat M4,81 % AChMax
same,%AChMax,dog M2,38 % AChMax
same,EC50,dog M2,2790 nM
same,pEC50,dog M2,5.55
same,%AChMax,minipig M4,72 % AChMax
same,EC50,minipig M4,34.3 nM
same,pEC50,minipig M4,7.46
same,activity,rat M3,inactive
same,%AChMax,dog M4,72 % AChMax
same,EC50,dog M4,36.3 nM
same,pEC50,dog M4,7.44
same,%AChMax,human M2,49 % AChMax
same,EC50,human M2,2820 nM
same,pEC50,human M2,5.5
same,%AChMax,cyno M2,34 % AChMax
same,EC50,cyno M2,3000 nM
same,pEC50,cyno M2,5.52
same,kinetic solubility,Kinetic solubility,15 µM
same,% Total Peak Area (MS),[2]; dog hepatocytes,71.6%
same,% Total Peak Area (MS),[2]; human hepatocytes,59.1%
same,% Total Peak Area (MS),[2]; minipig hepatocytes,18.8%
same,% Total Peak Area (MS),[2]; monkey hepatocytes,23.5%
same,% Total Peak Area (MS),[2]; rat hepatocytes,41.4%
